# Yeast mating assay 2: variants of the scFv Ab-95

From the AlphaSeq antibody data of Engelhart et al. 2022 (doi:10.1038/s41597-022-01779-4), copy in the FLAb collection.

Binding partner: SARS-CoV-2 spike HR2 peptide, sequence PDVDLGDISGINAS.

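The starting antibody came from a phage panning campaign against this peptide. AAYL52 was designed without a model: most single CDR substitutions and a random sample of double and triple ones. Affinity was read by AlphaSeq, a pooled yeast mating assay with surface-displayed partners. After mating in shaken culture at 30 °C for 16 h, diploids were selected and their barcode pairs sequenced. Scores were corrected for input abundance and mapped to Kd with protein pairs of known affinity run in the same pool. Each pool was mated in three replicate cultures.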

The variants keep the heavy chain, the linker and the frameworks of Ab-95 (scFv order VH, a (GGGGS)3 linker, VL).
VH: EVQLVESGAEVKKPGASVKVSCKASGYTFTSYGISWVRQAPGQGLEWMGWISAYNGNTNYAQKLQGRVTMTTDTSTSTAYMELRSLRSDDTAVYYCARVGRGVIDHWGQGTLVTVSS
VL: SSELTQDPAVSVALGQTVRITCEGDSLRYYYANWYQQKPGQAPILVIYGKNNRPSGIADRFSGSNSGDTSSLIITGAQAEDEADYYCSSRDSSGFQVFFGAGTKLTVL

Each variant is given by its three light chain CDRs, as the data file delimits them; those of the parent are EGDSLRYYYAN, GKNNRPS, SSRDSSGFQVF.
The read-out is the apparent dissociation constant on a log10 scale (nM): the lower, the stronger.
A mean of the replicates is given; it leaves out those without a signal.
A pair that was not seen in that replicate is written "ND"; this usually means weak binding, but a binder can also be missed.
Three control strains display no target. For library AAYL52, 28% of the pairings with them gave a signal, with a median of 3.91 and one signal in twenty below 2.90, so weak values seen in few replicates may be background. The control count says in how many pairings with the empty strains this scFv gave a signal, with their mean in brackets.

{"CDR-L1": "LGDSLRYYYAN", "CDR-L2": "GNNNRPS", "CDR-L3": "SSRDCSGFQVF", "log10 Kd, replicates": "3.25 2.59 3.35", "mean log10 Kd (nM)": "3.06", "empty controls": "2/9 (3.91)"}
{"CDR-L1": "EGDSLRYYYAN", "CDR-L2": "NKNNRPS", "CDR-L3": "SSRDISYFQVF", "log10 Kd, replicates": "ND ND ND", "mean log10 Kd (nM)": "ND", "empty controls": "1/9 (3.93)"}
{"CDR-L1": "EGDSLRYYYAN", "CDR-L2": "GKNNQVS", "CDR-L3": "SSRDSSGFHVF", "log10 Kd, replicates": "2.58 2.31 3.51", "mean log10 Kd (nM)": "2.80", "empty controls": "4/9 (3.38)"}
{"CDR-L1": "EGDSLRYYLAN", "CDR-L2": "GKNRRPS", "CDR-L3": "SSRDSSGFFVF", "log10 Kd, replicates": "3.93 3.88 3.47", "mean log10 Kd (nM)": "3.76", "empty controls": "3/9 (4.00)"}
{"CDR-L1": "EGDSLRYYYAN", "CDR-L2": "GMNNRPS", "CDR-L3": "SSRDSSGFQVF", "log10 Kd, replicates": "2.96 2.13 2.38", "mean log10 Kd (nM)": "2.49", "empty controls": "3/9 (3.88)"}
{"CDR-L1": "EFDVLRYYYAN", "CDR-L2": "GKNNRFS", "CDR-L3": "SSRDSSGFQVF", "log10 Kd, replicates": "4.72 ND 4.42", "mean log10 Kd (nM)": "4.57", "empty controls": "4/9 (3.94)"}
{"CDR-L1": "EGDSLRYYMAN", "CDR-L2": "GKNNKPS", "CDR-L3": "SSRDSLGFQVF", "log10 Kd, replicates": "1.79 1.87 1.52", "mean log10 Kd (nM)": "1.72", "empty controls": "1/9 (4.05)"}
{"CDR-L1": "EGDSLRYYYAN", "CDR-L2": "GKNNQPS", "CDR-L3": "SSRDSSFFQQF", "log10 Kd, replicates": "4.00 3.30 ND", "mean log10 Kd (nM)": "3.65", "empty controls": "5/9 (3.69)"}
{"CDR-L1": "CGDFLRYHYAN", "CDR-L2": "GKNNRPS", "CDR-L3": "SSRDSSGFQVF", "log10 Kd, replicates": "2.16 1.99 1.68", "mean log10 Kd (nM)": "1.94", "empty controls": "3/9 (3.62)"}
{"CDR-L1": "EGVSLRYYPAN", "CDR-L2": "GKNNRPS", "CDR-L3": "SSRDSSGFQVF", "log10 Kd, replicates": "1.30 1.23 0.73", "mean log10 Kd (nM)": "1.09", "empty controls": "3/9 (4.31)"}
{"CDR-L1": "EGDSLEYYYAN", "CDR-L2": "GKNIRPS", "CDR-L3": "SSRDHSGFQVF", "log10 Kd, replicates": "2.62 2.18 2.16", "mean log10 Kd (nM)": "2.32", "empty controls": "5/9 (3.92)"}
{"CDR-L1": "EVDSLRYYYAN", "CDR-L2": "QMNNRPS", "CDR-L3": "SSRDSSGFQVF", "log10 Kd, replicates": "3.56 4.49 4.03", "mean log10 Kd (nM)": "4.03", "empty controls": "3/9 (4.41)"}
{"CDR-L1": "EGDSLRYYVAN", "CDR-L2": "GKNNRCS", "CDR-L3": "SSRDKSGFQVF", "log10 Kd, replicates": "3.11 2.59 2.79", "mean log10 Kd (nM)": "2.83", "empty controls": "5/9 (4.09)"}
{"CDR-L1": "ELDALRYYYCN", "CDR-L2": "GKNNRPS", "CDR-L3": "SSRDSSGFQVF", "log10 Kd, replicates": "3.48 3.13 3.09", "mean log10 Kd (nM)": "3.24", "empty controls": "3/9 (3.90)"}
{"CDR-L1": "EGDSLRYYYAN", "CDR-L2": "GKNNRPS", "CDR-L3": "SPRDSSGFHMF", "log10 Kd, replicates": "ND ND 4.22", "mean log10 Kd (nM)": "4.22", "empty controls": "5/9 (4.17)"}
{"CDR-L1": "EGDSLRYYYAD", "CDR-L2": "GKNNRPS", "CDR-L3": "SSRTSSGFQVQ", "log10 Kd, replicates": "3.50 3.25 3.74", "mean log10 Kd (nM)": "3.49", "empty controls": "2/9 (3.49)"}
{"CDR-L1": "EGDSGRVYYAN", "CDR-L2": "GKNNRPS", "CDR-L3": "SSRDSSGFQHF", "log10 Kd, replicates": "ND ND ND", "mean log10 Kd (nM)": "ND", "empty controls": "3/9 (4.30)"}
{"CDR-L1": "EGDSLRYYYAN", "CDR-L2": "GKNNRPP", "CDR-L3": "CQRDSSGFQVF", "log10 Kd, replicates": "ND 5.17 ND", "mean log10 Kd (nM)": "5.17", "empty controls": "0/9"}
{"CDR-L1": "EIYSLRYYYAN", "CDR-L2": "GKNKRPS", "CDR-L3": "SSRDSSGFQVF", "log10 Kd, replicates": "2.88 2.96 3.20", "mean log10 Kd (nM)": "3.02", "empty controls": "2/9 (4.27)"}
{"CDR-L1": "EGDSLRYYDAN", "CDR-L2": "GKNNRPS", "CDR-L3": "SKRHSSGFQVF", "log10 Kd, replicates": "2.40 2.40 2.13", "mean log10 Kd (nM)": "2.31", "empty controls": "2/9 (3.82)"}
{"CDR-L1": "EVDSLRAYYAN", "CDR-L2": "GKNNRPS", "CDR-L3": "SSSDSSGFQVF", "log10 Kd, replicates": "4.14 ND 3.09", "mean log10 Kd (nM)": "3.62", "empty controls": "1/9 (3.35)"}
{"CDR-L1": "EGDSLRYYYAN", "CDR-L2": "GKNNRKM", "CDR-L3": "ESRDSSGFQVF", "log10 Kd, replicates": "2.58 2.82 3.55", "mean log10 Kd (nM)": "2.98", "empty controls": "2/9 (3.71)"}
{"CDR-L1": "EGDSLRYIYAN", "CDR-L2": "GKNNRPS", "CDR-L3": "SSRDSSGFQVI", "log10 Kd, replicates": "ND ND 3.46", "mean log10 Kd (nM)": "3.46", "empty controls": "1/9 (3.34)"}
{"CDR-L1": "EGTSLRYYYAN", "CDR-L2": "GKNNRPS", "CDR-L3": "SSRISSGFQVF", "log10 Kd, replicates": "4.11 ND ND", "mean log10 Kd (nM)": "4.11", "empty controls": "3/9 (3.49)"}
{"CDR-L1": "EGESLRYYYAN", "CDR-L2": "GKNGRPS", "CDR-L3": "SSYDSSGFQVF", "log10 Kd, replicates": "ND ND ND", "mean log10 Kd (nM)": "ND", "empty controls": "3/9 (4.23)"}
{"CDR-L1": "EGDSLRYYYAN", "CDR-L2": "DKNNRMS", "CDR-L3": "SSRDSSRFQVF", "log10 Kd, replicates": "ND ND 3.86", "mean log10 Kd (nM)": "3.86", "empty controls": "4/9 (3.81)"}

The first 3 entries again:

{"CDR-L1": "LGDSLRYYYAN", "CDR-L2": "GNNNRPS", "CDR-L3": "SSRDCSGFQVF", "log10 Kd, replicates": "3.25 2.59 3.35", "mean log10 Kd (nM)": "3.06", "empty controls": "2/9 (3.91)"}
{"CDR-L1": "EGDSLRYYYAN", "CDR-L2": "NKNNRPS", "CDR-L3": "SSRDISYFQVF", "log10 Kd, replicates": "ND ND ND", "mean log10 Kd (nM)": "ND", "empty controls": "1/9 (3.93)"}
{"CDR-L1": "EGDSLRYYYAN", "CDR-L2": "GKNNQVS", "CDR-L3": "SSRDSSGFHVF", "log10 Kd, replicates": "2.58 2.31 3.51", "mean log10 Kd (nM)": "2.80", "empty controls": "4/9 (3.38)"}